{
  "sequences": {"note": "Chains of the proteins cited; added tags and fusions are not shown. Lines headed by an entry give the natural chain unless they say otherwise; changes in a name come on top.", "UniProt P11229": "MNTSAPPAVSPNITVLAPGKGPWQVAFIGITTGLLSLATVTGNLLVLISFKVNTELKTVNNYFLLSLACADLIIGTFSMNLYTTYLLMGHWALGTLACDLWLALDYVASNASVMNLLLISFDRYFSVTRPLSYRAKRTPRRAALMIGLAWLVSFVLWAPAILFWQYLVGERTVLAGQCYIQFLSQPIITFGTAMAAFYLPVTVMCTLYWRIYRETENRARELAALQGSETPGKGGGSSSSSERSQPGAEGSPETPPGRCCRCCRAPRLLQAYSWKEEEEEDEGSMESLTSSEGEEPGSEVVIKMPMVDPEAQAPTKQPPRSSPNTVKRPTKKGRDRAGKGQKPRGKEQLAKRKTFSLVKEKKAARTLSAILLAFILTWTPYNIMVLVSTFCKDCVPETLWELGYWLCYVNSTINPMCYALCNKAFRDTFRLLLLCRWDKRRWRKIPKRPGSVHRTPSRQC"},
  "source": "patent US11534434B2",
  "about": "(Karuna Therapeutics, Inc., priority 2019, dated 2022)",
  "key": {"human M1 mAChR": {"target": "T1, human M1 mAChR (Homo sapiens, UniProt P11229)", "T1 construct": "expressed in transfected cells", "assay": "Whole-cell functional agonist activity, FLIPR Ca2+ release, U2OS-based human M1 mAChR stable cell line", "conditions": "top of curve, % activity vs MAX control ligand", "description": "(§1) Whole-cell functional agonist activity in cells expressing recombinant human muscarinic receptor subtypes.\n(§2) ThermoFisher's FLIPR™ (Fluorescence Imaging Plate Reader) was used to quantify Ca^2+ release, a functional effect associated with Gaq-coupled M1 and M5 mAChRs. CisBio's phospho-ERK (pERK) Thr202/Tyr204 was used to evaluate Gai/o-coupled M2 and M4 mAChRs responses.\nOne day before the assay, M1, M3, and M5 cells were thawed out and plated at 10,000 cells/well into black-walled, clear-bottom, Poly-D-lysine coated 384-well microplates and incubated at 37° C. and 5% CO2 in MEME+10% FBS+1× penicillin/streptomycin/glutamine, for the M1 and M3 cell lines and F-12+10% FBS+1× penicillin/streptomycin/glutamine for the M5 cell line. […] The M1 and M5 responses were analyzed using the CBIS data analysis suite (ChemInnovation, CA).\n(§3) Percentage activity was calculated using the following formula: % Activity=100%×(mean RFU of test sample mean RFU of vehicle control)/(mean MAX RFU control ligand mean RFU of vehicle control) where RFU is relative fluorescence unit. The M2 and the M4 cells were thawed out one day before the assay and plated at 2,000 and 1,000 cells per well, respectively, in […] of DMEM/F12+10% FBS in ProxiPlate 384-well white-walled, white-bottom tissue culture-treated plates and incubated at 37° C. and 5% CO2 overnight. […]"}, "human M2 mAChR": {"target": "T2, human M2 mAChR (Homo sapiens, UniProt P08172)", "T2 construct": "expressed in transfected cells", "assay": "Whole-cell functional agonist activity, phospho-ERK (pERK), CHOK1-based human M2 mAChR stable cell line", "conditions": "CHOK1 human M2 cells", "procedure": "as §1, §2\nas §3, with “overnight. Before the assay, cells were serum-starved at 37° C. in 5% CO2 for 4 hours by replacing culture media with […] of F12 media with 8 mM HEPES.” for “overnight.”\nCompound addition was carried out by adding 3× compound solution in […] of media with 0.3% DMSO (made from a 10 mM compound stock solution in 100% DMSO) for 5 minutes before the reaction was terminated by adding […] lysis and blocking solution. […] The plates were then read on laser Pherastar using the TR-FRET protocol."}},
  "data": [
    {"smiles": "CCCCCCOc1nsnc1C1=CCCN(C)C1", "note": "[Xanomeline, 3-(hexyloxy)-4-(1-methyl-1,2,5,6-tetrahydropyridin-3-yl)-1,2,5-thiadiazole, reference compound]", "values": [
      {"measurement": "Emax", "setting": "human M1 mAChR", "value": 91, "unit": "%"},
      {"measurement": "EC50", "setting": "human M2 mAChR", "value": "> 34", "unit": "nM"}
    ]}
  ]
}
